In patent US20150307603A1 (MODIQUEST B V, published 2015):

Legend:
[1] = molecular target: T1, human recombinant histone 3 (human); assay: ELISA, Ab 2 ug/well
T1 construct: Non-deiminated; also called H3
Source text: (§1) The resulting OD (y-axis) is a measure for antibody binding. H1-recombinant histone 1; H1/p2-huPAD2 recombinant histone 1; H1/p4-huPAD4 recombinant histone 1, and so forth (x-axis).
(§2) In order to further analyze which deiminated histone or histones are involved in the therapeutic action of RhmAb2.102, RhmAb2.108, RhmAb2.109, RhmAb2.110, RhmAb2.111 RhmAb2.112, RmmAb22.101, and RmmAb22.102, commercially available histones (H1, H2A, H2B, H3 and H4) were deiminated with human peptidylarginine deiminase (PAD, EC 3.5.3.15) enzymes (huPAD2 or huPAD4). Deiminated as well as non-deiminated histones were coated on 96-well ELISA plates and incubated with serial dilutions of RhmAb2.101 and RhmAb2.102.

[2] = molecular target: T1, human recombinant histone 3; assay: ELISA, Ab 10 ug/well
Source text: as §1, §2

[3] = molecular target: T2, peptide no. 7 (human histone 2A) (human, X at position 6 = citrulline; biotin-labelled); assay: ELISA, Ab 0.08 ug/well
T2 construct: also called peptide 7
T2 peptide: GNYSEXVGAGAP
Experimental: (§3) Biotin and citrulline-containing peptides derived from histone 2A were immobilized on NEUTRAVIDIN®-coated 96-well ELISA plates (0.3 μg/well). CFC-1 and CFC-0 were coated at the same concentration and served as positive and negative controls, respectively, for specific anti-citrulline reactivity and as coating controls. Non-coated wells were used to test for aspecific binding of the antibodies. […] Detection of bound anti-citrulline antibodies was performed by incubating the wells with rabbit anti-human HRP (1:2000) for 1 hour at RT followed by incubation with TMB substrate. The resulting OD (y-axis) is a measure for antibody binding.
(§4) To further pinpoint the exact citrullinated epitope on H2A that is recognized by RhmAb2.102, biotin-labeled peptides as shown in Table 4 were synthesized containing potential deimination sites of histone 2A. These peptides were coated on 96-well NEUTRAVIDIN®-ELISA plates and incubated with serial dilutions of RhmAb2.101 and RhmAb2.102.

[4] = molecular target: T3, peptide no. 10 (human histone 2A) (human, X at position 6 = citrulline; biotin-labelled); assay: ELISA, Ab 0.08 ug/well
T3 construct: also called peptide 10
T3 peptide: TRIIPXHLQLAI
Experimental: as §3, §4

[5] = molecular target: T4, peptide no. 3 (human histone 2A) (human, X at position 6 = citrulline; biotin-labelled); assay: ELISA, Ab 0.0032 ug/well
T4 construct: also called peptide 3
T4 peptide: KSRSSXAGLQFP
Experimental: as §3, §4

[6] = molecular target: T5, peptide no. 6 (human histone 2A) (human, X at position 6 = citrulline; biotin-labelled); assay: ELISA, Ab 0.0032 ug/well
T5 construct: also called peptide 6
T5 peptide: VHRLLXKGNYSE
Experimental: as §3, §4

[7] = molecular target: T6, peptide no. 9 (human histone 2A) (human, X at position 6 = citrulline; biotin-labelled); assay: ELISA, Ab 0.0032 ug/well
T6 construct: also called peptide 9
T6 peptide: DNKKTXIIPRHL
Experimental: as §3, §4

[8] = molecular target: T4, peptide no. 3 (human histone 2A); assay: ELISA, Ab 0.00064 ug/well
Experimental: as §3, §4

[9] = molecular target: T5, peptide no. 6 (human histone 2A); assay: ELISA, Ab 0.00064 ug/well
Experimental: as §3, §4

[10] = molecular target: T3, peptide no. 10 (human histone 2A); assay: ELISA, Ab 0.00064 ug/well
Experimental: as §3, §4

[11] = molecular target: T7, peptide no. 12 (human histone 2A) (human, X at position 6 = citrulline; biotin-labelled); assay: ELISA, Ab 0.00064 ug/well
T7 construct: also called peptide 12
T7 peptide: NKLLGXVTIAQG
Experimental: as §3, §4

[12] = molecular target: T8, peptide no. 4 (human histone 2A) (human, X at position 6 = citrulline; biotin-labelled); assay: ELISA, Ab 0.000128 ug/well
T8 construct: also called peptide 4
T8 peptide: QFPVGXVHRLLR
Experimental: as §3

[13] = molecular target: T2, peptide no. 7 (human histone 2A); assay: ELISA, Ab 0.000128 ug/well
Experimental: as §3

[14] = molecular target: T7, peptide no. 12 (human histone 2A); assay: ELISA, Ab 0.000128 ug/well
Experimental: as §3

B1: RhmAb2.102 (antibody, human IgG1, lambda)
heavy: not shown
light: QSVLTQPPSMSAAPGQKVTISCSGSSSNIGNNYVSWYQQVPGTAPKLLIYDDNKRPSGIPGRFSGSKSATSATLGITGLQAGDEADYYCGSWDDNLSVVLFGGGTKLTVLGQPKAAPSVTLFPPSSEELQANKATLVCLISDFYPGAVTVAWKADSSPVKAGVETTTPSKQSNNKYAASSYLSLTPEQWKSHRSYSCQVTHEGSTVEKTVAPTECS
notes: Human IgG1 lambda; also called Rhm2.102
In the case of B1, the OD [1] is reported as 0.275 OD450, the OD [2] is reported as 0.549 OD450 and the OD [3] is reported as 0.062 OD450. It also gave an OD [4] of 0.058 OD450, an OD [5] of 0.062 OD450 and an OD [6] of 0.058 OD450. The OD [7] was 0.062 OD450, the OD [8] was 0.058 OD450 and the OD [9] was 0.058 OD450. The OD [10] was 0.056 OD450, the OD [11] was 0.056 OD450 and the OD [12] was 0.058 OD450. The OD [13] was 0.056 OD450 and the OD [14] was 0.056 OD450.
